{
  "source": "patent US20210205389A1",
  "about": "“METHODS AND COMPOSITIONS FOR TREATING NON-SMALL CELL LUNG CANCER” (Chang Gung Medical Foundation Keelung Chang Gung Memorial …, priority 2015, published 2021)",
  "test_system": "EGFR",
  "test": "P-EGFR and EGFR quantification in CL97 xenograft tumors",
  "details": "control = 1.00",
  "data": [
    {"smiles": "COc1cc2ncnc(Nc3ccc(F)c(Cl)c3)c2cc1OCCCN1CCOCC1", "note": "[Gefitinib]", "values": [
      {"measurement": "EGFR", "result": 1.74, "unit": "fold change"},
      {"measurement": "P-EGFR (Y1068)", "result": 1.70, "unit": "fold change"},
      {"measurement": "p-EGFR/EGFR", "result": 0.98, "unit": "fold change"}
    ]}
  ]
}
